The text below walks through data of US11524937B2, “Indirubin derivatives, and uses thereof” (CITY OF HOPE, priority 2012, dated 2022).

Sequences of proteins named here, by UniProt entry; tags and fusion partners are left off. Residues count along the entry.
UniProt P49841, whole entry: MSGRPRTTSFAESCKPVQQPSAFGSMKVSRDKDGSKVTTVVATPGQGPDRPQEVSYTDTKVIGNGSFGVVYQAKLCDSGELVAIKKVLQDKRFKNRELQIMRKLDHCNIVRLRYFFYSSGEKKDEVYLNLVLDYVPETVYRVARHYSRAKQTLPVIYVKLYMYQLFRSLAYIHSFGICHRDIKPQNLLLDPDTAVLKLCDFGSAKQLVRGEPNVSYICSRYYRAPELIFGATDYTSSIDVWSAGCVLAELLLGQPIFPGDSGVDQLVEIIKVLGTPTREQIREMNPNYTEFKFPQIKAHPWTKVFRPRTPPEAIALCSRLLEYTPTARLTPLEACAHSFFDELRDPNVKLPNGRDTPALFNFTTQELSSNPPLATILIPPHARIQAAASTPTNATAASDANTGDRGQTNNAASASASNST
UniProt P07948, whole entry: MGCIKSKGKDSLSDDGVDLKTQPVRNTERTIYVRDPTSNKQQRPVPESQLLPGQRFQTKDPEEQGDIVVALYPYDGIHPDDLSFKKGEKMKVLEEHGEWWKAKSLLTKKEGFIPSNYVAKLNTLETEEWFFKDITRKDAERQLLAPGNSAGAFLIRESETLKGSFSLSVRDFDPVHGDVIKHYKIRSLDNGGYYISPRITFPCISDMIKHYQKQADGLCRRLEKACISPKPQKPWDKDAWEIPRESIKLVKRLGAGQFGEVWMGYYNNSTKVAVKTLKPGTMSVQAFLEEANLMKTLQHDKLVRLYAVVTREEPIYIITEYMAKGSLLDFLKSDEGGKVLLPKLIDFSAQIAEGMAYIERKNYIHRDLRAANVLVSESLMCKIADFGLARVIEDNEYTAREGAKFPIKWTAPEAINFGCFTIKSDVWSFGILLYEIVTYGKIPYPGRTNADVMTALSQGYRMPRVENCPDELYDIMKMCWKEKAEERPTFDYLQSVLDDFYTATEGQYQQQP
UniProt P06241, whole entry: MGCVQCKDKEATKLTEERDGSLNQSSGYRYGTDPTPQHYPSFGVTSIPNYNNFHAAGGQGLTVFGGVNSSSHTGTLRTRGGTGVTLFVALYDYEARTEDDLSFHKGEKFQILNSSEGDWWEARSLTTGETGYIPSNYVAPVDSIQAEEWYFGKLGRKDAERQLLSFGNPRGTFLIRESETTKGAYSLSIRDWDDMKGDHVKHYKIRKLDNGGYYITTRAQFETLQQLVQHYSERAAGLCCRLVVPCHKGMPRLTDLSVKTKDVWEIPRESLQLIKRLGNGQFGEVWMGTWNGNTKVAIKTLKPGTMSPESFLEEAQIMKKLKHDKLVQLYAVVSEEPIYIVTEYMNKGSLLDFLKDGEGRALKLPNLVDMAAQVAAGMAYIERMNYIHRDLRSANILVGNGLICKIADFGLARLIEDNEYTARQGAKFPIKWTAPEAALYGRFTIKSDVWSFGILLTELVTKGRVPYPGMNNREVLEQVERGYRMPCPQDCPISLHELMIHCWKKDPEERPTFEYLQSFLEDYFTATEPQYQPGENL
UniProt P09769, whole entry: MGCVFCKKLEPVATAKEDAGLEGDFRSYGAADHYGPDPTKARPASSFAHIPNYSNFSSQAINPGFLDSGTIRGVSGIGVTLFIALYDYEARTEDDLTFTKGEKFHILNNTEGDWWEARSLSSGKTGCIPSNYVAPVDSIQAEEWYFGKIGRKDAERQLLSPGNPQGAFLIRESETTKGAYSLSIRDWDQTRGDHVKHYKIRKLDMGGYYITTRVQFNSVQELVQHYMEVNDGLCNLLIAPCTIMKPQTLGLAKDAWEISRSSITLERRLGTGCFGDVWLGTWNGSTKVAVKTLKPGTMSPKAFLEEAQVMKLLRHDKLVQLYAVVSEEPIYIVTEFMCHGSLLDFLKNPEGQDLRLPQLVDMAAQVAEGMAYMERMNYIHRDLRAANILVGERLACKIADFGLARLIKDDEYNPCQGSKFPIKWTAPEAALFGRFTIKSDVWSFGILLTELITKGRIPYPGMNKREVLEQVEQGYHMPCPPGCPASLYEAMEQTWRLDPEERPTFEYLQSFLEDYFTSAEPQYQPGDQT
UniProt P08631, whole entry: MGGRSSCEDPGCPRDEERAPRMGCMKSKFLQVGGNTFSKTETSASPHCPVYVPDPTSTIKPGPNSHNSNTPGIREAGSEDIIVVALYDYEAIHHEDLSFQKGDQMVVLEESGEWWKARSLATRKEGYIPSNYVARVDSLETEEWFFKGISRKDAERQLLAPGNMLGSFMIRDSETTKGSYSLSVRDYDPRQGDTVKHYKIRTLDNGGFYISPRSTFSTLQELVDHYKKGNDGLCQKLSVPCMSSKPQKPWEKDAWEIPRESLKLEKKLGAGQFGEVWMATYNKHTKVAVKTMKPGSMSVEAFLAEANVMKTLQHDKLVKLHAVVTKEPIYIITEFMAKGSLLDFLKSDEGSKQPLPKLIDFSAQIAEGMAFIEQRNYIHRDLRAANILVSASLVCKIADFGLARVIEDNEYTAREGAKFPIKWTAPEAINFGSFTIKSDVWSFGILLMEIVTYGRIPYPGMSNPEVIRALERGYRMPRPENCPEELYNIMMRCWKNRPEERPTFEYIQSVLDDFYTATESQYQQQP
UniProt P29597, whole entry: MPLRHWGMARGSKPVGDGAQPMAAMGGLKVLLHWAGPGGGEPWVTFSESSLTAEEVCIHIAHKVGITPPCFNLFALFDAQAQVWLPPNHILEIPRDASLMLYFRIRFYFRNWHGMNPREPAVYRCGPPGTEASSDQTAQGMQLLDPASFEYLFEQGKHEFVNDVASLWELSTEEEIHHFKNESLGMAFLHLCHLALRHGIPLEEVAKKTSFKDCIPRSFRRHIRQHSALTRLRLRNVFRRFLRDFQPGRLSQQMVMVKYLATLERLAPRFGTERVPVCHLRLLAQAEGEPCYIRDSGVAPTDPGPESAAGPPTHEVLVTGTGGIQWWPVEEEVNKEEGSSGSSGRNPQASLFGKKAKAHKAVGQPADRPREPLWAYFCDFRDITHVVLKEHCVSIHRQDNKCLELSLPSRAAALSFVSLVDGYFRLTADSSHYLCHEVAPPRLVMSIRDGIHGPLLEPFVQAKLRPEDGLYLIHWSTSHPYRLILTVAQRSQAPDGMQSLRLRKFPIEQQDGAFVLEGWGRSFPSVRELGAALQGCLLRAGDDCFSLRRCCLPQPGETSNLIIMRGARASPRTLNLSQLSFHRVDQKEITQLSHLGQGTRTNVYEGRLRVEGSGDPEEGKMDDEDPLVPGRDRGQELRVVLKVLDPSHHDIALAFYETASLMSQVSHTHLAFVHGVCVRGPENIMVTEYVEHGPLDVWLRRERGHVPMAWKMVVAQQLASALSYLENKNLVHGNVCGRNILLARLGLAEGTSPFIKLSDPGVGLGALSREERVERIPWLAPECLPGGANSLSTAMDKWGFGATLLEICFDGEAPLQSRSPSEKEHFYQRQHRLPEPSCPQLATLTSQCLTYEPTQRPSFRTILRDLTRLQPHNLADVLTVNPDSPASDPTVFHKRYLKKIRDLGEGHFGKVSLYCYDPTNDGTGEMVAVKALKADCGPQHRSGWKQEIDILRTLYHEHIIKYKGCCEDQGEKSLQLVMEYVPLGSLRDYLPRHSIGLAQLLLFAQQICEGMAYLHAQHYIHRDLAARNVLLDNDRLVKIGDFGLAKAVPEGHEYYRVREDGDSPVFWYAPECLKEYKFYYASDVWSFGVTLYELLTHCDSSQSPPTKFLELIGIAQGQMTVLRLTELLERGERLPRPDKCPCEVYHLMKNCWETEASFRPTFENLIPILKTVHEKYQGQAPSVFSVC
UniProt P36888, 27-993 limits assumed: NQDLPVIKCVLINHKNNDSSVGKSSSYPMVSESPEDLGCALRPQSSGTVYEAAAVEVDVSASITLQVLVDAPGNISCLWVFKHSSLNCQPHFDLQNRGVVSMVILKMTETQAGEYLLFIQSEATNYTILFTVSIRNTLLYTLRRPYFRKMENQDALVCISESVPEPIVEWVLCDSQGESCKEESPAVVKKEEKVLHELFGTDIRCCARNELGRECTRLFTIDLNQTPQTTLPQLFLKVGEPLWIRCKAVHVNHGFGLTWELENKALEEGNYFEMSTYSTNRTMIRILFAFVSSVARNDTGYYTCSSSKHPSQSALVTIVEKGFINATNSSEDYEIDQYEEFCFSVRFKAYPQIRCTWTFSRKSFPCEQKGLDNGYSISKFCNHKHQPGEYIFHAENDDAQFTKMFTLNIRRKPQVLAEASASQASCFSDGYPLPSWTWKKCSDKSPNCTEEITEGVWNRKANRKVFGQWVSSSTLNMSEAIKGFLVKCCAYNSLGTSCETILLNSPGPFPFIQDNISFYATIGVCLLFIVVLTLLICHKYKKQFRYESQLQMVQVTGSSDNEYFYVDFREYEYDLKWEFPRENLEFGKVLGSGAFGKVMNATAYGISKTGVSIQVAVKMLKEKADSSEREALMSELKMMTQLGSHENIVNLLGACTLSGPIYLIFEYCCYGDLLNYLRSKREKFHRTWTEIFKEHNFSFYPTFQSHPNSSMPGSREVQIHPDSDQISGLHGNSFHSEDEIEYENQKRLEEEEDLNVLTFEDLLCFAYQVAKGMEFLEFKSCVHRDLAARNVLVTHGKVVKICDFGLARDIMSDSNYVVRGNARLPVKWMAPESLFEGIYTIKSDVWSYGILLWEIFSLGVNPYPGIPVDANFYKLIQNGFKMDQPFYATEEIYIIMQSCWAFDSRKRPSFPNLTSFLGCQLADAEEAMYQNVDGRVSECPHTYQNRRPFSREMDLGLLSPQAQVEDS

The test system of assay [1] is p-Jak2 in SKOV3 ovarian cancer cells. The assay is described as follows: Western blot p-Jak2, SKOV3 cells. The note with it: SKOV3, 0.5 μM, 4 hours. On the technique in general: Immunoblotting shows a protein as a band on a membrane.
Assay [2] deals with GSK3β (Homo sapiens, UniProt P49841). Kind of assay: in vitro kinase assay, recombinant GSK3β.
The target of assay [3] is LYN (Homo sapiens, UniProt P07948). Kind of assay: in vitro kinase assay, recombinant LYN.
Assay [4] concerns the target FYN (Homo sapiens, UniProt P06241). The assay is described as follows: in vitro kinase assay, recombinant FYN.
Assay [5] has as its system p-Stat3 in SKOV3 ovarian cancer cells. Kind of assay: Western blot p-Stat3, SKOV3 cells. The note with it: SKOV3, 0.5 μM, 4 hours.
The test system of assay [6] is p-Stat3 in PaCa2 pancreatic cancer cells. Kind of assay: Western blot p-Stat3, PaCa2 cells. The note with it: PaCa2, 0.5 μM, 4 hours.
For assay [7], the system named is p-SFKs in SKOV3 ovarian cancer cells. The assay is described as follows: Western blot p-SFKs, SKOV3 cells. The note with it: SKOV3, 4 hours.
The subject of assay [8] is p-Stat5 in MV4-11 AML cells. Kind of assay: Western blot p-Stat5, MV4-11 AML cells.
For assay [9], the system named is p-Jak2 in PaCa2 pancreatic cancer cells. The assay is described as follows: Western blot p-Jak2, PaCa2 cells. The note with it: PaCa2, 0.5 μM, 4 hours.
Assay [10] deals with FGR (Homo sapiens, UniProt P09769). Kind of assay: in vitro kinase assay, recombinant FGR.
Assay [11] has as its target HCK (Homo sapiens, UniProt P08631). The assay is described as follows: in vitro kinase assay, recombinant HCK.
Assay [12] concerns the target TYK2 (Homo sapiens, UniProt P29597). Kind of assay: in vitro kinase assay, recombinant TYK2.
Assay [13] addresses CDK2/cyclin A (Homo sapiens, UniProt P24941). The assay is described as follows: in vitro kinase assay, recombinant CDK2/cyclin A.
The target of assay [14] is FLT3 (Homo sapiens, UniProt P36888). The assay is described as follows: in vitro kinase assay, recombinant FLT3.

For the compound `COC(=O)c1ccc2c(c1)C(=NO)C(=C1C(=O)Nc3cc(Br)ccc31)N2`, the “phosphorylation of Jak2” value in assay [1] and in assay [9] was “substantially inhibited” throughout. Further, the IC50 in assay [2], in assay [3], in [4], in assay [10], in assay [11] and in assay [12] was at most 1200 nM throughout. The IC50 in assay [13] and in [14] (FLT3) was at most 1200 nM each time. The “phosphorylation of Stat3” value in assay [5] and in [6] was “substantially inhibited” throughout. In addition, the “levels of p-SFKs” value in assay [7] was “Reduced”. In assay [8] (0.5 μM, 4 hours), the “phosphorylation of Stat5” value is given as “substantially inhibited”. Further, the “levels of p-Stat5” value in [8] (at a low concentration) was “significantly reduced”. In assay [14] (FIG. 16A), the FLT3 kinase activity entry is listed as “inhibition”.

As a reminder, the IC50 is the concentration that gives 50% inhibition.
